Biological target: T1, 35S-methionine-labelled MPK4 (Arabidopsis thaliana, UniProt Q39024 1-376, limits assumed, 35S-methionine-labelled)
T1 construct: also called 35S-MPK4; in vitro synthesized MPK4
T1 sequence (looked up): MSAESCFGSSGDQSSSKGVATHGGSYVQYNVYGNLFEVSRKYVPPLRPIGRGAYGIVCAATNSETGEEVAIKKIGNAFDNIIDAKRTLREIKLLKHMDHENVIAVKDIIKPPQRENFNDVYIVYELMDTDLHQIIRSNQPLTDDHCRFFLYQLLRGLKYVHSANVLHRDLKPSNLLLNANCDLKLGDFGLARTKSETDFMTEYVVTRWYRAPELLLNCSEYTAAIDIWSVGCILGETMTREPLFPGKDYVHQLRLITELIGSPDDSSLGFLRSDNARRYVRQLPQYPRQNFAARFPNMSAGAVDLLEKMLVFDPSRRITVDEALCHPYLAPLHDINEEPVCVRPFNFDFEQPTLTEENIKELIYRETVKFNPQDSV
Assay: GST pull-down, SDS-PAGE, phosphoimager

B1: GST protein alone (other, UniProt P08515 1-218, looked up)
chain: MSPILGYWKIKGLVQPTRLLLEYLEEKYEEHLYERDEGDKWRNKKFELGLEFPNLPYYIDGDVKLTQSMAIIRYIADKHNMLGGCPKERAEISMLEGAVLDIRYGVSRIAYSKDFETLKVDFLSKLPEMLKMFEDRLCHKTYLNGDHVTHPDFMLYDALDVVLYMDPMCLDAFPKLVCFKKRIEAIPQIDKYLKSSKYIAWPLQGWQATFGGGDHPPK
notes: Negative control on glutathione-Sepharose beads; also called Glutathione-S-transferase
  binding result: no binding
